Measured affinities in a library of Ab-14 light chain variants

The measurements come from Engelhart et al. 2022 (doi:10.1038/s41597-022-01779-4) through the FLAb antibody collection.

Target: peptide PDVDLGDISGINAS, taken from heptad repeat 2 (HR2) of SARS-CoV-2 spike.

Parent scFv Ab-14: VH joined to VL by the linker GGGGSGGGGSGGGGS. Changes lie in the light chain CDRs alone.
VH: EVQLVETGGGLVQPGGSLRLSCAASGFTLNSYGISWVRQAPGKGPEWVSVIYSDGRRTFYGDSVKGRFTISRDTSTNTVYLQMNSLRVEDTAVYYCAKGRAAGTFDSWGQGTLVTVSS
VL: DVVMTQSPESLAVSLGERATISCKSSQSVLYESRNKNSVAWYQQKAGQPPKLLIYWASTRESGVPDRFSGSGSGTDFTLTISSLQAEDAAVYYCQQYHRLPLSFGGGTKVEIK

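Phage display of a naive human antibody library on the peptide gave the parent. The library (AAYL50) carries one to three amino acid substitutions per variant, with no insertions or deletions. In AlphaSeq, yeast of one mating type display the scFv and yeast of the other type display the target. Pairs that bind mate more often; barcode pairs of the diploids are counted by sequencing. The ratio of observed to expected reads was calibrated, replicate by replicate, on BCL2-family standards whose Kd was known from biolayer interferometry. Each pool was mated in three replicate cultures.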

Positions count from residue 1 of the parent VL; S38G puts G in place of S.
Values are log10 of the apparent Kd in nM; lower means stronger binding.
The mean shown is taken over the replicates in which the pair was detected.
A pair that was not seen in any replicate is written "nd"; this usually means weak binding, but a binder can also be missed.
Parent in this assay: reference entry 0.65, copy in this library 1.68.
Background: pairings of library AAYL50 with three empty control strains gave a value in 18% of cases (median 4.19, 5th percentile 2.99). Values in that range, when seen in few replicates, are hard to tell from nonspecific mating.

| changes | log10 Kd (nM), mean | replicates with signal |
|---|---|---|
| S38G/L102Q | 4.20 | 2 of 3 |
| S38A/Q95N/L100G | 1.97 | 3 of 3 |
| L30F/Y97W/P101E | 4.53 | 2 of 3 |
| Q27W/W56A/T59S | 0.14 | 3 of 3 |
| V29Y/A57C/Y97P | nd | 0 of 3 |
| E32P/N37S/S38A | 1.65 | 3 of 3 |
| K36F/H98F/P101T | 1.20 | 3 of 3 |
| E32N/N37K/L102H | 4.16 | 3 of 3 |
| S25P/R60L/Y97F | 5.74 | 1 of 3 |
| R34Q/L100K/P101N | 1.34 | 3 of 3 |
| V29N/R34Y/T59W | 2.44 | 3 of 3 |
| R34W/K36T/A40M | nd | 0 of 3 |
| S25L/P101Y/L102R | nd | 0 of 3 |
| S28Y/S38F/S58F | nd | 0 of 3 |
| N35R/R99G/L102T | nd | 0 of 3 |
| L30Y/S38I/S58M | nd | 0 of 3 |
| S28K/Y97S/L100I | nd | 0 of 3 |
| A40K/A57R/R99M | 5.13 | 1 of 3 |
| R34P/R60T/Y97V | 3.88 | 1 of 3 |
| R34L/K36D/S58R | 1.19 | 3 of 3 |
| S26R/S28D/Q95T | 3.42 | 1 of 3 |
| E32M/A57Q/T59V | 3.59 | 3 of 3 |
| L30R/Y31N/E32S | 2.73 | 1 of 3 |
| K24D/S38C/W56K | 1.30 | 3 of 3 |
| Y31H/V39D/W56Q | nd | 0 of 3 |
| L30D/R34M/N35A | 0.70 | 3 of 3 |
| K24H/S26N/A40K | nd | 0 of 3 |
| R34T/H98C/S103D | 0.72 | 3 of 3 |
| E32P/N37C/S38M | 4.08 | 1 of 3 |
| K24L/R60A/S62R | 3.59 | 2 of 3 |
| N37I/T59P/R60I | 4.18 | 2 of 3 |
| S38M/S58I/R60V | nd | 0 of 3 |
| A40N/E61Q/L102C | 2.91 | 1 of 3 |
| Y31C/A40I/A57W | nd | 0 of 3 |
| S33C/A40R/S103K | nd | 0 of 3 |
| Q27M/R34F/L102E | nd | 0 of 3 |
| S26P/L30T/N35W | 1.87 | 3 of 3 |
| L30C/S33T/S38C | nd | 0 of 3 |
| Y97M/R99T/S103L | 0.61 | 3 of 3 |
| S28T/V39F/S103I | nd | 0 of 3 |
| S25A/R99C/P101R | 3.49 | 3 of 3 |
| Q27A/R34H/L100T | 2.94 | 3 of 3 |
| L30M/H98N | 2.05 | 3 of 3 |
| S25T/S26T/K36F | nd | 0 of 3 |
| S28R/N35A/E61I | 2.47 | 3 of 3 |
| N35A/V39W/A57C | nd | 0 of 3 |
| K36V/V39Y | nd | 0 of 3 |
| S25D/S33A/R99V | nd | 0 of 3 |
| V29P/K36C/N37E | nd | 0 of 3 |
| K24Y/R60I/P101M | 3.78 | 1 of 3 |
| Y31N/A57R/L102A | 4.59 | 1 of 3 |
| S33C/N35P/R99T | nd | 0 of 3 |
| Q27L/E32P/S33L | 1.48 | 3 of 3 |
| K36S/L102I | 0.57 | 3 of 3 |
| R60A/E61G/S103V | nd | 0 of 3 |
| K36W/A40C/P101V | nd | 0 of 3 |
| S25E/V39K/R60G | nd | 0 of 3 |
| Q27E/W56I/A57Y | nd | 0 of 3 |
| E32W/A40N/Q96V | 4.42 | 2 of 3 |
| Y31V/S58H | 1.08 | 3 of 3 |
| S28A/N35K/S38I | nd | 0 of 3 |
| K24V/S33V/S62F | nd | 0 of 3 |
| K24M/S33Y/L102S | nd | 0 of 3 |
| K24D/S26F/N35A | nd | 0 of 3 |
| E32A/R99G | 2.44 | 3 of 3 |
| S26D/L30W/L100Q | 2.33 | 3 of 3 |